Source: ChEMBL document CHEMBL1126733, “Orally active, nonpeptide vasopressin V1 antagonists. A novel series of 1-(1-substituted 4-piperidyl)-3,4-dihdyro-2(1H)-quinolinone” (J Med Chem, 1993)

By UniProt entry, the sequences of proteins in these tests, tags left out.
UniProt P30560, whole entry, looked up: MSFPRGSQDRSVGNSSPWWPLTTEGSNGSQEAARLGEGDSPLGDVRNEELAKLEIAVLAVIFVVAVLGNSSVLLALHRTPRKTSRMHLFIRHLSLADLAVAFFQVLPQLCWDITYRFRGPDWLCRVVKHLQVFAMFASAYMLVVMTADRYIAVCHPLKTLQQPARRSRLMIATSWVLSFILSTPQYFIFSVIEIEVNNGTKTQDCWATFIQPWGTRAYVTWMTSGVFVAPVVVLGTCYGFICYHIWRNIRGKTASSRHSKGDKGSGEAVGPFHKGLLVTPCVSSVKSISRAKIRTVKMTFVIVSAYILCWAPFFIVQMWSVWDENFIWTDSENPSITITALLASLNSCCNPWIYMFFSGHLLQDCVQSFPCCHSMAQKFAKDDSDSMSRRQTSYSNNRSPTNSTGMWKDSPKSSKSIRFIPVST

What was measured:
[1] = biological target: Vasopressin V1a receptor (Rattus norvegicus) (UniProt P30560); conditions: Artery; 22 uM
[2] = biological target: Vasopressin V1a receptor (Rattus norvegicus) (UniProt P30560); assay: Inhibition expressed as percent change in diastolic blood pressure increased by AVP (30 milliunits / kg, iv) before and after oral administration at 23 uM/kg; assay type: functional, organism-based; conditions: Artery
[3] = biological target: Vasopressin V1a receptor (Rattus norvegicus) (UniProt P30560); assay: Inhibition dose for AVP (30 milliunits/kg, iv) induced vasoconstriction when orally administarted; assay type: functional, organism-based
[4] = biological target: Vasopressin V1a receptor (Rattus norvegicus) (UniProt P30560); assay: Inhibition expressed as percent change in diastolic blood pressure increased by AVP (30 milliunits / kg, iv) before and after oral administration at 21 uM/kg; assay type: functional, organism-based; conditions: Artery
[5] = biological target: Vasopressin V1a receptor (Rattus norvegicus) (UniProt P30560); conditions: Artery; 20 uM
[6] = biological target: Vasopressin V1a receptor (Rattus norvegicus) (UniProt P30560); conditions: Artery; 19 uM
[7] = biological target: Vasopressin V1a receptor (Rattus norvegicus, UniProt P30560); assay: Ability to displace [3H]- Arginine Vasopressin (AVP) from its specific binding sites in rat liver (V1 receptor)
[8] = biological target: Vasopressin V1a receptor (Rattus norvegicus) (UniProt P30560); conditions: Artery; 240 uM

For `NCCCCCOc1ccc(C(=O)N2CCC(N3C(=O)CCc4ccccc43)CC2)cc1`, the inhibition [1] was “inactive”.

With `NCCCCOc1ccc(C(=O)N2CCC(N3C(=O)CCc4ccccc43)CC2)cc1` the inhibition [2] was 31%.

`COC(=O)NCCCOc1ccc(C(=O)N2CCC(N3C(=O)CCc4ccccc43)CC2)cc1` showed an ID50 [3] of 8.6 µmol/kg and an inhibition [4] of 73%.

Work on `CC(=O)NCCCCCCOc1ccc(C(=O)N2CCC(N3C(=O)CCc4ccccc43)CC2)cc1` yielded an ID50 [3] of 10 µmol/kg and an inhibition [5] of 72%.

In the case of `CC(=O)NCCCCCCCCOc1ccc(C(=O)N2CCC(N3C(=O)CCc4ccccc43)CC2)cc1`, the inhibition [6] is reported as “inactive”.

`CC(=O)Oc1ccc(C(=O)N2CCC(N3C(=O)CCc4ccccc43)CC2)cc1` showed an IC50 [7] of 490 nM.

For `O=C(c1ccc(Br)cc1)N1CCC(N2C(=O)CCc3ccccc32)CC1`, the inhibition [8] was “inactive”.

The source made the active and inactive calls. No cut-off for these calls is given here.
